This is an account of results in BindingDB's records for doi:10.1016/s0014-2999(98)00104-6 (Uppsala University, 1998).

Protein sequences, listed by entry. Tags and fused reporters are not part of them.
UniProt Q70HQ0, whole entry: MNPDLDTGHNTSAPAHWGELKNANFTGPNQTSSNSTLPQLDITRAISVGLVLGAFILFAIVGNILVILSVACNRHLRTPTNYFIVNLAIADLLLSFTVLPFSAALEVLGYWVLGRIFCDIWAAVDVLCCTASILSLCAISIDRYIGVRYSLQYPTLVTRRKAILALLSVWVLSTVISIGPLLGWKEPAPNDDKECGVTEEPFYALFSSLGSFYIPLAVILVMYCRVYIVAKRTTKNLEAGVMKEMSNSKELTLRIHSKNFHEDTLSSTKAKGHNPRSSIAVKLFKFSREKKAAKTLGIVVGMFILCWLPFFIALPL

For this test, the target named is Alpha-1B adrenergic receptor (Sus scrofa, UniProt Q70HQ0).

As for `Cc1cc(C(C)(C)C)c(O)c(C)c1CC1=NCCN1` [SMR000059324], the Ki came to 158 nM.

`COC(=O)C1C(C)=NC(C)=C(C(=O)OCCCN2CCC(c3ccccc3)(c3ccccc3)CC2)C1c1cccc([N+](=O)[O-])c1` (configuration not stated) [CAS_1236] showed a Ki of 316 nM.
